The assay addresses human Nav1.7 (Homo sapiens, UniProt Q15858). In words: cell-based. Conditions: whole-cell voltage clamp, HEK 293 cells; read-out: hNav1.7 IC50.

Chains of the proteins cited; added tags and fusions are not shown.
UniProt Q15858, whole entry: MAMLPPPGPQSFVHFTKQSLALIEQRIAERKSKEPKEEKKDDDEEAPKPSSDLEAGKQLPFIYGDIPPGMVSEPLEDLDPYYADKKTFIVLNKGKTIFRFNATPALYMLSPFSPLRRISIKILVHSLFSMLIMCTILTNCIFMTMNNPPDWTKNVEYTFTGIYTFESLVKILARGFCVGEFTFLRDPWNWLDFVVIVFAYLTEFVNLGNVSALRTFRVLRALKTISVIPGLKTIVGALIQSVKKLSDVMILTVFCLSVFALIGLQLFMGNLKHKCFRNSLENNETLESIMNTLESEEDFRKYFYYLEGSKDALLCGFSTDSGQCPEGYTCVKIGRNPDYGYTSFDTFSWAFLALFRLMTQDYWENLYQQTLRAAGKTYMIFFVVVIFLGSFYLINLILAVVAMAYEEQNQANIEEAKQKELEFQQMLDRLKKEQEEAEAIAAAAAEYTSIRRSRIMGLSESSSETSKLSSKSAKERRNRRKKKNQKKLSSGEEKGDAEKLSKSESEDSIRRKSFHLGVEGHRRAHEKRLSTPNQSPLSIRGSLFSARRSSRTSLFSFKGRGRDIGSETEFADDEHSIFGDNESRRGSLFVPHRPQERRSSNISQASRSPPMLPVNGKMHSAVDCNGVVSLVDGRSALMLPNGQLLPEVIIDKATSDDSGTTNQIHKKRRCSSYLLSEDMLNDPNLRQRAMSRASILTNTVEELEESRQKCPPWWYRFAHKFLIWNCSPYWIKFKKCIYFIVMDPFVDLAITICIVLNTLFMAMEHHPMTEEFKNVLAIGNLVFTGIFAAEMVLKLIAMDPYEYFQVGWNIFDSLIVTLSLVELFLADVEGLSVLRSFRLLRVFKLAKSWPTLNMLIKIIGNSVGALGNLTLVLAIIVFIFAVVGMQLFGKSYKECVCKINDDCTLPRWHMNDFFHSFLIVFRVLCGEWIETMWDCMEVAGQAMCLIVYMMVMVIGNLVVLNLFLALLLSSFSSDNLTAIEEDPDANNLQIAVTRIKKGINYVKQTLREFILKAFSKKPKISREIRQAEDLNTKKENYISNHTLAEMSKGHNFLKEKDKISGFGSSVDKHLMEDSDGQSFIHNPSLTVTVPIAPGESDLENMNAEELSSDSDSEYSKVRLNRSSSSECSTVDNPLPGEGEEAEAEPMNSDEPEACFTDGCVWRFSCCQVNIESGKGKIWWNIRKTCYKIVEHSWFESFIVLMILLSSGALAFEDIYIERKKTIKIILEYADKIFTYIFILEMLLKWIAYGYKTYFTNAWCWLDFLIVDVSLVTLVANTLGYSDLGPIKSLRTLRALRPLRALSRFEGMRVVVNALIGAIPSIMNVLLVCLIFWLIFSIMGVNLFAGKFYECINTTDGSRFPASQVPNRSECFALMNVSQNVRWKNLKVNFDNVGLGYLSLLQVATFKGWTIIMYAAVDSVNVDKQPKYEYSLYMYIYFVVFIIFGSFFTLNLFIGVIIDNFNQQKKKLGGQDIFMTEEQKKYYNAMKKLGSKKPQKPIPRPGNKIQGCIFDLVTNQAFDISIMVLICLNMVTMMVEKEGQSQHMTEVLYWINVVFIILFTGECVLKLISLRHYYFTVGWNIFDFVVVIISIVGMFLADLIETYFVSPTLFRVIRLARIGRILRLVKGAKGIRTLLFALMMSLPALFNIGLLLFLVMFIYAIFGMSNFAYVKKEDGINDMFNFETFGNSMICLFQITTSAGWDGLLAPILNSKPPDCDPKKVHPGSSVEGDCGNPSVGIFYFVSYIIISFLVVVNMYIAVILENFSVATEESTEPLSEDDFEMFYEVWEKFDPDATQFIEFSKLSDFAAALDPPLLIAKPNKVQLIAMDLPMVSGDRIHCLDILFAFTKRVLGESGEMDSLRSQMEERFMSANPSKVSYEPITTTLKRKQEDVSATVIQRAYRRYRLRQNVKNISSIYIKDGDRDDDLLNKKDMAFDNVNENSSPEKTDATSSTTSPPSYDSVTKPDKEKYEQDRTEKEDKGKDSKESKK

Usually IC50 stands for the concentration needed to halve the response being measured. Regarding `CSCC[C@@H]1NC(=O)[C@H](Cc2c[nH]c3ccccc23)NC(=O)[C@H](CCCCN)NC(=O)[C@H](CCC(N)=O)NC(=O)[C@@H](NC(=O)[C@@H](N)Cc2c[nH]cn2)CSSC[C@@H]2NC(=O)[C@@H]3CSSC[C@@H](C(=O)N[C@@H](CCCNC(=N)N)C(=O)N[C@@H](Cc4ccc(C)cc4C)C(=O)N[C@@H](CCC(=O)O)C(=O)N[C@@H](CSC(C)(C)C)C(=O)N[C@@H](CC(C)C)C(N)=O)NC(=O)[C@H](Cc4c[nH]c5ccccc45)NC(=O)[C@H](CC(C)C)NC(=O)[C@H](CCCNC(=N)N)NC(=O)[C@H](CSSC[C@H](NC(=O)[C@H]([C@@H](C)O)NC(=O)[C@H](CCC(N)=O)NC1=O)C(=O)N[C@@H](CC(=O)O)C(=O)N[C@@H](CCCCN)C(=O)N[C@@H](CC(=O)O)C(=O)N[C@@H](CCCNC(=N)N)C(=O)N[C@@H](CCCCN)C(=O)N3)NC(=O)[C@H](CCCNC(=N)N)NC(=O)[C@H](Cc1ccccc1)NC(=O)CNC(=O)[C@H](CCC(=O)O)NC2=O` [PTx2-3260], the IC50 amounted to 21 nM.

For the origin of these results see patent US20260001922A1, “PEPTIDES TARGETING SODIUM CHANNELS TO TREAT PAIN” (priority 2022, published 2026).
